Patent US20140128380A1, “METHODS OF MODULATING THE ACTIVITY OF THE MC1 RECEPTOR AND TREATMENT OF CONDITIONS RELATED TO THIS RECEPTOR” (Mimetica Pty Ltd, priority 2009, published 2014)

By UniProt entry, the sequences of proteins in these tests, tags left out. Where a name states a change or a piece, a line headed by the entry shows the natural chain unless it says otherwise.
UniProt Q01726: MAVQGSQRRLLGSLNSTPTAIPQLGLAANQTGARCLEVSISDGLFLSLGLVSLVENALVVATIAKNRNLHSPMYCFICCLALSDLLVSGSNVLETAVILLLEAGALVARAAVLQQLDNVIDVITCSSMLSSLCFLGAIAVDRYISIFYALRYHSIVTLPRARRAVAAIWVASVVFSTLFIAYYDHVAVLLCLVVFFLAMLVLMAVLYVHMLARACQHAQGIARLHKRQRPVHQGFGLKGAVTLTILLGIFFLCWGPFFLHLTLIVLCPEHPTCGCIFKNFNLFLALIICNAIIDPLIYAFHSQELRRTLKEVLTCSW

Biological target: T1, human MC1R (hMC1R) (Homo sapiens, UniProt Q01726)
T1 construct: purchased Perkin Elmer ES-195-M400UA
Assay: Human MC1R radioligand binding assay (displacement of 125I-labeled NDP-MSH, Perkin Elmer hMC1R membranes)
Conditions: displacement of [125I]NDP-MSH, compounds tested as trifluoroacetate or hydrochloride salts or free base
Description: Assessments of compound binding to human MC1R (hMC1R)) by displacement of an ^125I-labeled NDP-MSH receptor ligand peptide were performed essentially as described in the data sheets produced by Perkin Elmer to accompany their frozen hMC1R membranes (Perkin Elmer catalog number ES-195-M400UA).
[^125I] NDP-MSH: radiolabeled in house and purified by HPLC:
Na ^125I (0.5 mCi, 17.4 Ci/mg) was added to 50 μL sodium phosphate (50 mM, pH 7.4) in an eppendorf tube precoated with IODOGEN. After incubation for 10 mins the phosphate buffer containing the iodine was added to NDP-MSH (10 ul at 1 mg/mL) in a separate eppendorf tube. This was incubated for a further 10 mins. The iodinated NDP-MSH was purified by HPLC on a Zorbax SB 300 column using solvent A: 0.05% TFA and solvent B: 90% acetonitrile 0.045% TFA with a linear gradient, 0-67% B over 60 mins. The ^125I NDP-MSH eluted at 52 mins after the unlabeled starting material (48 min) and was counted and stored in the freezer.
Incubation buffer: 25 mM HEPES-KOH (pH 7.0), 1.5 mM CaCl2, 1 mM MgSO4, 0.1 M NaCl, 1 mM 1,10-phenanthroline, and 1 Complete™ protease inhibitor tablet/100 mL (Roche, catalog number 1873580)
Perkin Elmer frozen hMC1 membranes: catalog number ES-195-M400UA, 0.4 mL/vial; 400 microassays/vial, 0.78 mg/mL protein concentration […]

IC50: < 10 µM
Structure (SMILES): O=C(NC[C@@H]1CCN(CC(c2ccccc2)c2ccccc2)C(=O)[C@H](CCCN2CCCCC2)N1)c1ccc2ccccc2c1 [Compound 106, N-(((3S,5S)-1-(2,2-diphenylethyl)-2-oxo-3-(3-(piperidin-1-yl)propyl)-1,4-diazepan-5-yl)methyl)-2-naphthamide]
